In PubChem BioAssay (EPA / NIEHS):
Several values for one entry are separate records, joined by “and”; a condition that tells them apart may be missing. Equal entries are not always repeated. This is a selection; strong and weak results do not stand in their true shares. Inconclusive results are not listed. Activity calls are given as the source filed them. Rule for the calls, unless noted: active = hit-call score of the fitted dose curve at least 0.9, where 1 is the maximum; inactive = score below 0.9.

Sequences of proteins named here, by UniProt entry; tags and fusion partners are left off. A change or cut given only in a name is not applied to a line headed by its entry.
UniProt P08047, whole entry, looked up: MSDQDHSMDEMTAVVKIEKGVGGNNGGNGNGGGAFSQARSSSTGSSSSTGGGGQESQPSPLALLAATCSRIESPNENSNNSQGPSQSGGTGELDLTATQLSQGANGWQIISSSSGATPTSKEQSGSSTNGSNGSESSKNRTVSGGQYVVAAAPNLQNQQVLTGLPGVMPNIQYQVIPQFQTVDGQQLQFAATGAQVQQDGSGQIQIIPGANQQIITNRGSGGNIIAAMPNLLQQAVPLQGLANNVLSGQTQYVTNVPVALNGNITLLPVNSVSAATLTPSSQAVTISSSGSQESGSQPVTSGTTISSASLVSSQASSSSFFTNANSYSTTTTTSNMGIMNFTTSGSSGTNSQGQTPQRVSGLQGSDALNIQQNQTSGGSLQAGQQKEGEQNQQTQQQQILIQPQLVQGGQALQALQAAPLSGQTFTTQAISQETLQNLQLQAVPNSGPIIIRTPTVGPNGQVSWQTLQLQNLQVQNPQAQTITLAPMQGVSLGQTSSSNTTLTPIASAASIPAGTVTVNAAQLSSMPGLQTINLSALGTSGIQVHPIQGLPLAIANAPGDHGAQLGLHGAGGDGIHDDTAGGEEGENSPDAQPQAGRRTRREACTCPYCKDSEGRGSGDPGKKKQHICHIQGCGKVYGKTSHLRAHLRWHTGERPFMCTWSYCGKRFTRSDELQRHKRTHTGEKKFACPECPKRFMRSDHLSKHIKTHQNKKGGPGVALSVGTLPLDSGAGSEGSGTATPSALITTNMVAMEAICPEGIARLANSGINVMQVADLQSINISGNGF
UniProt P40763, whole entry, looked up: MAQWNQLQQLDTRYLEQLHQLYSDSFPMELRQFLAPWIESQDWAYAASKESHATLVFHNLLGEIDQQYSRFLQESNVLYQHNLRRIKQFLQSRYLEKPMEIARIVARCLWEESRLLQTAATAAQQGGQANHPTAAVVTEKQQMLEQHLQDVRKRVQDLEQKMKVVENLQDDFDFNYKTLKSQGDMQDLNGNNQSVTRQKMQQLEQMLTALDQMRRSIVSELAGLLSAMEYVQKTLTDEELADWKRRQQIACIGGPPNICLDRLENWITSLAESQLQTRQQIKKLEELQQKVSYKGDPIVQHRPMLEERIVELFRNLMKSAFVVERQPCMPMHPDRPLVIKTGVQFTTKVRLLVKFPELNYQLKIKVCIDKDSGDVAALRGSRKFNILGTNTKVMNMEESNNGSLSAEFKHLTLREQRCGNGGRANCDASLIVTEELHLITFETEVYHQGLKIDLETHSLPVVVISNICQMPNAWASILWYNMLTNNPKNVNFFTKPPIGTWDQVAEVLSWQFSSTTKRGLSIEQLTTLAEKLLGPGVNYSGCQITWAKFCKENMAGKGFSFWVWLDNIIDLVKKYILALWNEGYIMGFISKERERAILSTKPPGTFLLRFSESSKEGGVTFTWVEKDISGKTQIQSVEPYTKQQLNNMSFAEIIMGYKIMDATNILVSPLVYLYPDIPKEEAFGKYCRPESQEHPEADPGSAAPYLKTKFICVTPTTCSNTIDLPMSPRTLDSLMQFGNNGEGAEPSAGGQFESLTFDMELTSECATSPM
UniProt Q14994: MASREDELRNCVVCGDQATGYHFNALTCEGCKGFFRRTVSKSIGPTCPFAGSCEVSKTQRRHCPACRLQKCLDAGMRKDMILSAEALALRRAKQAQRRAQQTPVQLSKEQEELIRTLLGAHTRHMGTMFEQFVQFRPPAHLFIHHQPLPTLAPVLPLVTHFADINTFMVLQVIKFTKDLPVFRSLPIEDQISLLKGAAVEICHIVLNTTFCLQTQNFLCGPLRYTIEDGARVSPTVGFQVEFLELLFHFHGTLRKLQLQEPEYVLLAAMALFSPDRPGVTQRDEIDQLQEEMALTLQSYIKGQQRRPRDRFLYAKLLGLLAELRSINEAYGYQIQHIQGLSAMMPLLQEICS
UniProt P03372, whole entry, looked up: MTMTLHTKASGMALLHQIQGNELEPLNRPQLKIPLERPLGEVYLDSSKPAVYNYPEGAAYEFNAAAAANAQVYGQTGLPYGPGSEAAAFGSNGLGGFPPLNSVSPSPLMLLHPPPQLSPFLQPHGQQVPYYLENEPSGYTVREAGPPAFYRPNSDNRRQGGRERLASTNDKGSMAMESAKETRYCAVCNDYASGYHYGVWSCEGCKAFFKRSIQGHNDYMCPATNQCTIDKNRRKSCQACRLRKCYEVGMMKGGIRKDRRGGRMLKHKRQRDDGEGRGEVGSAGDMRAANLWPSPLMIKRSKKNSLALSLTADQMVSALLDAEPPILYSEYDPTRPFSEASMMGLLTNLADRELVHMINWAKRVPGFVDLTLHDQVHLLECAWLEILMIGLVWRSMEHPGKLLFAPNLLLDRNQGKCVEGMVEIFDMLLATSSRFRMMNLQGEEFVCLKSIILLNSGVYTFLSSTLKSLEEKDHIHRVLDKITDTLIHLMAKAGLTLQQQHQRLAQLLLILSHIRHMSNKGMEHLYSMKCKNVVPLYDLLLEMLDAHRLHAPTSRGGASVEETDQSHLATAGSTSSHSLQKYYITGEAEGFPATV

Experiments:
[1] = ATG_RORE_CIS: Attagene CIS-FACTORIAL HepG2 Assay for human RAR-related Orphan Receptor Element (RORE) (AID 2282959); settings: HepG2 Attagene cis-factorial RORE reporter, mRNA; actives raise or lower the signal
Method in brief: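 Multiplexed reporter assay measuring mRNA induction from a cis promoter element in transiently transfected HepG2 cells after 24 h treatment. Detection via RT-PCR and capillary electrophoresis fluorescence; DMSO serves as baseline.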

[2] = ATG_Sox_CIS: Attagene CIS-FACTORIAL HepG2 Assay for human SRY-box transcription factor (SOX) (AID 2282960); settings: HepG2 Attagene cis-factorial SOX reporter, mRNA; actives raise or lower the signal
Method in brief: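 Cells were transfected with reporter constructs under cis-regulatory promoters, then exposed to chemicals for 24 h. Reporter transcripts were quantified by fluorescence after RT-PCR and capillary electrophoresis; activity was fitted in both directions against DMSO.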

[3] = target: Transcription factor Sp1 (Homo sapiens) (UniProt P08047); test: ATG_Sp1_CIS: Attagene CIS-FACTORIAL HepG2 Assay for human Specificity Protein 1 (Sp1) (AID 2282961); settings: HepG2 Sp1 cis-reporter transcription, actives raise or lower the signal
Method in brief: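 Measures mRNA induction of an Sp1-linked reporter in HepG2 cells 24 h post-dosing. Multiplexed reporters read by RT-PCR and capillary electrophoresis; DMSO serves as negative control and baseline.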

[4] = target: Signal transducer and activator of transcription 3 (Homo sapiens) (UniProt P40763); test: ATG_STAT3_CIS: Attagene CIS-FACTORIAL HepG2 Assay for human Signal Transducer and Activator of Transcription 3 (STAT3) (AID 2282963); settings: HepG2, Attagene cis-factorial STAT3 reporter transcription; actives raise or lower the signal
Method in brief: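 After a 24 h compound incubation, total RNA from MRTU-transfected HepG2 cells was converted to cDNA and reporter sequences PCR-amplified, labelled and profiled by capillary electrophoresis. Gain and loss of signal were referenced to DMSO.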

[5] = ATG_TA_CIS: Attagene CIS-FACTORIAL HepG2 Assay for human TA Basal Promoter (AID 2282964); settings: HepG2 Attagene CIS-factorial TA basal promoter reporter; actives raise or lower the signal
Method in brief: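 HepG2 cells transiently transfected with multiple reporter units under cis promoter elements, reporting endogenous transcription factor activity; this endpoint tracks the TA basal promoter as background control. Reporter mRNA after 24 h dosing measured by RT-PCR/capillary electrophoresis; bidirectional fits versus DMSO.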

[6] = ATG_TCF_b_cat_CIS: Attagene CIS-FACTORIAL HepG2 Assay for human T-Cell-Factor with beta-catenin (TCF/b-cat) (AID 2282965); settings: HepG2 TCF/beta-catenin cis-reporter transcription, actives raise or lower the signal
Method in brief: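 Endogenous TCF/LEF activity read as reporter transcript level via RT-PCR and capillary electrophoresis fluorescence in transfected HepG2, 24 h exposure; gain or loss of signal fitted against DMSO controls.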

[7] = ATG_TGFb_CIS: Attagene CIS-FACTORIAL HepG2 Assay for human Transforming Growth Factor (TGF) (AID 2282967); settings: HepG2 Attagene CIS TGFb reporter, mRNA transcription; actives raise or lower the signal
Method in brief: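 HepG2 cells transiently transfected with cis-promoter-driven multiple reporter units measure endogenous TF activity; reporter mRNA quantified at 24 h by RT-PCR, FAM labeling, HpaI digestion and capillary electrophoresis. Bidirectional fit vs DMSO.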

[8] = ATG_VDRE_CIS: Attagene CIS-FACTORIAL HepG2 Assay for human Vitamin D Receptor Element (VDRE) (AID 2282968); settings: HepG2 VDRE cis-reporter transcription, actives raise or lower the signal
Method in brief: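 In transiently transfected HepG2 liver cells, gain or loss of reporter mRNA after 24 h exposure is scored relative to DMSO, using fluorescence detection by capillary electrophoresis of RT-PCR products.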

[9] = target: Nuclear receptor subfamily 1 group I member 3 (Homo sapiens) (UniProt Q14994); test: ATG_CAR_TRANS: Attagene TRANS-FACTORIAL HepG2 Assay for human Constitutive Androstane Receptor (CAR) (AID 2282969; active = hit-call score of the fitted dose curve at least 0.9, where 1 is the maximum;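 note: activators raise reporter mRNA above DMSO so AC50 marks induction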); settings: HepG2 Attagene TRANS-FACTORIAL CAR reporter
Method in brief: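 Readout is reporter mRNA induction, quantified by fluorescent primer extension and capillary electrophoresis after RT-PCR. Cells were HepG2 transiently carrying chimeric NR-Gal4 constructs with GAL4-UAS reporters, treated for 24 h; activity scored upward from DMSO.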

[10] = target: Estrogen receptor (Homo sapiens) (UniProt P03372); test: ATG_ERa_TRANS: Attagene TRANS-FACTORIAL HepG2 Assay for human Estrogen Receptor alpha (ERa) (AID 2282970; active = hit-call score of the fitted dose curve at least 0.9, where 1 is the maximum); settings: HepG2 Attagene TRANS ERa GAL4 reporter, mRNA
Method in brief: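 HepG2 cells transiently transfected with multiplexed GAL4-UAS reporter units; ERa activity read via exogenous chimeric NR-Gal4 protein. After 24 hour compound exposure, reporter mRNA measured by RT-PCR with 6-FAM labelling and capillary electrophoresis; gain-of-signal fitted relative to DMSO.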

Measured: AC50

O=P(Cl)(Oc1ccccc1)Oc1ccccc1
inactive: [1] | [2] | [3] | [4] | [5] | [6] | [7] | [8] | [9] | [10]

CC(C)OP(=S)(OC(C)C)SCCNS(=O)(=O)c1ccccc1
active: [8] 297 nM and 701 nM and 900 nM
inactive: [2] | [3] | [4] | [5] | [6] | [7]

O=[N+]([O-])c1ccc([N+](=O)[O-])cc1
inactive: [1] | [2] | [4] | [5] | [6] | [7] | [8] | [10]

CC(C)CCCCCCCOP(OCCCCCCCC(C)C)Oc1ccccc1
active: [3] 126000 nM
inactive: [1] | [2] | [4] | [5] | [6] | [7] | [9] | [10]

O=[P+](Oc1ccccc1)Oc1ccccc1
inactive: [1] | [2] | [3] | [4] | [5] | [6] | [7] | [8] | [9] | [10]

CCCCC(CC)CO[P+](=O)OCC(CC)CCCC (stereo unspecified)
inactive: [1] | [2] | [3] | [4] | [5] | [6] | [7] | [9] | [10]
active: [8] 27.8 µM

Cc1cc([N+](=O)[O-])cc([N+](=O)[O-])c1O
inactive: [1] | [2] | [3] | [4] | [5] | [6] | [7] | [8]

N#CSc1ccc([N+](=O)[O-])cc1[N+](=O)[O-]
inactive: [1] | [3] | [4] | [5] | [7]
active: [2] 17100 nM

O=C(Cl)Oc1ccccc1
inactive: [1] | [2] | [3] | [4] | [5] | [6] | [7] | [9]
active: [8] 0.0834 µM

O=C(Cl)OCCOC(=O)Cl
inactive: [1] | [2] | [3] | [4] | [5] | [6] | [7] | [8]

O=C1C2CC=CCC2C(=O)N1SC(Cl)(Cl)C(Cl)Cl (stereo unspecified)
inactive: [2] | [3] | [4] | [5] | [6] | [7] | [8] | [9]

CCCCOP(OCCCC)OCCCC
active: [8] 26.1 µM
inactive: [1] | [2] | [3] | [4] | [5] | [6] | [7] | [9] | [10]

CN(C(=O)Cc1cccc2occc12)[C@H]1CC[C@@]2(CCCO2)C[C@@H]1N1CCCC1
inactive: [2] | [3] | [4] | [5] | [6] | [7] | [8] | [9] | [10]

O=[As]c1ccccc1 (stereo unspecified)
active: [2] 412 nM | [3] 329 nM | [4] 600 nM | [6] 173 nM | [8] 0.279 µM
inactive: [1] | [5] | [7] | [9] | [10]

CCCCO[P+](=O)OCCCC
inactive: [1] | [2] | [3] | [4] | [5] | [6] | [7] | [8]

O=[p+]1oc2ccccc2c2ccccc21 (stereo unspecified)
inactive: [1] | [2] | [3] | [4] | [5] | [6] | [7] | [8]

ClP(Cl)c1ccccc1
inactive: [1] | [2] | [3] | [4] | [5] | [6] | [7] | [8]
